The values that follow are results of earlier work, collected in patent US7993638B2, “Cancer treatment combining lymphodepleting agent with CTLs and cytokines” (Janssen Pharmaceutica NV, priority 2006, dated 2011).

This data set deals with metastatic melanoma or renal cell cancer. The settings on record: cited from earlier work.

As to “IL-2: human recombinant interleukin-2, a lymphokine produced by recombinant DNA technology”, the remission rate (high-dose IL-2, 283 patients) is listed as 7%. Besides, the complete responses (high-dose IL-2, 283 patients, number of responses) was 9. Where the note is “human, in vivo”, the “most common side effects” value is listed as “flu-like symptoms”; the “most severe side effects” value is “hypotension, capillary leak syndrome, and reduced organ perfusion”.
